The chains behind the UniProt entries cited, without tags or fusion partners. Where a name states a change or a piece, a line headed by the entry shows the natural chain unless it says otherwise.
UniProt P23270: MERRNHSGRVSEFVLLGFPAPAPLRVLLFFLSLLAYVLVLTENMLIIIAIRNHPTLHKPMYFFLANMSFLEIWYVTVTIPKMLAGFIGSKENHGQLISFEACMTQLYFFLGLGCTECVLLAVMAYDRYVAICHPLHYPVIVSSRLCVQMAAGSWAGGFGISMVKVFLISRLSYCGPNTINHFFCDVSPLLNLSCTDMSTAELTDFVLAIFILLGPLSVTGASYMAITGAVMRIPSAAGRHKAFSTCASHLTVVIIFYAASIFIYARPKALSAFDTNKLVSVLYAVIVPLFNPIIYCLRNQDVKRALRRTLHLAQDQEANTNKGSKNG

According to patent publication US7223550B2, “Biosensor for defecting chemical agents” (dated 2007):

Key:
[1] = target: T1, rat RI7 olfactory receptor (Rattus norvegicus, UniProt P23270); assay: GFP expression in WIF-1α-RI7 cells exposed to olfactants, laser confocal microscopy; details: for GFP expression in WIF-1α-RI7 cells in the presence of the olfactant: 100 nmoles olfactant, 3 hrs. post-exposure, laser confocal microscopy, FIGS. 6A-6D; for Detection of the olfactant by the WIF-1α-RI7 cells: conclusion drawn from GFP expression at 100 nmoles, 3 hrs.
[2] = target: T1, rat RI7 olfactory receptor; assay: GFP fluorescence response of yeast biosensor WIF-1α-RI7 to olfactants (plate reader); details: single concentration 25 nM for 3 hours; excitation 485 nm, emission 535 nm; FIG. 4B

| SMILES | GFP expression in WIF-1α-RI7 cells in the presence of the olfactant [1] | Detection of the olfactant by the WIF-1α-RI7 cells [1] | Specificity of WIF-1α-RI7: ratio of WIF-1α-RI7 GFP fluorescence values over WIF-1α (control) GFP fluorescence values [2] |
| --- | --- | --- | --- |
| CCCCCCC=O | increased GFP expression in cells exposed to heptaldehyde with respect to the control and hexaldehyde-exposed cells | some detection | – |
| CCCCCCCC=O | increase in GFP expression in cells exposed to octaldehyde with respect to heptaldehyde-exposed cells | specifically detect | greater specificity |
| CCCCCC=O | essentially equal to background | no detection | – |
